These results are taken from ChEMBL document CHEMBL5042498, “Development of 3-(4-Chlorophenyl)-1-(phenethyl)urea Analogues as Allosteric Modulators of the Cannabinoid Type-1 Receptor: RTICBM-189 is Brain Penetrant and Attenuates Reinstatement of Cocaine-Seeking Behavior” (J Med Chem, 2022).

This series can be described thus: Ratio of drug level in Sprague-Dawley rat brain to plasma assessed as permeability coefficient at 10 mg/kg, po by LC-MS/MS. In kind it is ADME, organism-based.

For `O=C(NCCc1cccc(Cl)c1)Nc1ccc(Cl)cc1`, the Ratio amounted to 2.
